From patent US7632933B2, “Corticotropin releasing factor 2 receptor agonists” (priority 2002, dated 2009)

Tests used:
[1] = biological target: T1, CRF2R (Homo sapiens, UniProt Q13324); assay: CRF2R agonist activity (EC50 and Emax), called comparative CRF binding; assay type: cell-based; settings: CRF2R EC50 (nM), CRF2R
T1 sequence (Q13324 1-411): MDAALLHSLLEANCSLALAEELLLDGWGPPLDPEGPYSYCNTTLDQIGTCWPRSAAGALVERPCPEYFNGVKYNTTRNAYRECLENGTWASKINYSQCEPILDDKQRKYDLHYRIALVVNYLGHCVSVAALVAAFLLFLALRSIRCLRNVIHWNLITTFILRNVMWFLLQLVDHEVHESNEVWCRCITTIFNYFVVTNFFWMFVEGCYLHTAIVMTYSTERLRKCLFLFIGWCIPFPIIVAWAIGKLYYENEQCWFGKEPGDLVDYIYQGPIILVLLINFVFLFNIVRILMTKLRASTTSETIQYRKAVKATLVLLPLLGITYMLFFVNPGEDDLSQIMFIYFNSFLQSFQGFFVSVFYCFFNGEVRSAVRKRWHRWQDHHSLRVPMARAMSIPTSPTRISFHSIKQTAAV
Method in brief: (§1)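 Steps: express single CRFR subtype in cells; add peptide or vehicle; prepare lysates or quantify CRE-linked reporter (e.g. luciferase, CAT, GFP, alkaline phosphatase) to gauge cAMP increase.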

[2] = biological target: T2, CRF1R (Homo sapiens, UniProt P34998); assay: CRF1R agonist activity (EC50 and Emax), called comparative CRF binding; assay type: cell-based; settings: CRF1R; for EC50: CRF1R EC50 (nM)
T2 sequence (P34998 24-415): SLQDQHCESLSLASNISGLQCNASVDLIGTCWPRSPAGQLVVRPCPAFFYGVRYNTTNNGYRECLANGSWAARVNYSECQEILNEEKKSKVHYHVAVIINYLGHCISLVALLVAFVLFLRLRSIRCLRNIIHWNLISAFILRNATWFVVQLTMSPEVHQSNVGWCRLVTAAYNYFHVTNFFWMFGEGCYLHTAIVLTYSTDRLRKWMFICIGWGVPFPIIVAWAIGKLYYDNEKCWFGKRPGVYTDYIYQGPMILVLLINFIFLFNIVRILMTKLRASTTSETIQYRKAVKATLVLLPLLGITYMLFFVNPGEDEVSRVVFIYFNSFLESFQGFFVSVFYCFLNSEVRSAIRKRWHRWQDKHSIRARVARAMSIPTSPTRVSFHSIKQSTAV
Method in brief: as §1

SMILES | EC50 [1] | EC50 [2] | CRF1R (Emax %) ([2]; Emax)
CC[C@H](C)[C@H](NC(=O)[C@H](CCC(=O)O)NC(=O)[C@@H](NC(=O)[C@H](CCSC)NC(=O)[C@H](CCCCN)NC(=O)[C@H](CCCNC(=N)N)NC(=O)[C@H](CC(C)C)NC(=O)[C@H](CC(C)C)NC(=O)[C@H](CCC(N)=O)NC(=O)[C@H](Cc1ccc(O)cc1)NC(=O)[C@@H]1CCCN1C(=O)[C@H](CC(C)C)NC(=O)[C@H](CC(=O)O)NC(=O)[C@@H](NC(=O)[C@H](CO)NC(=O)[C@@H](NC(=O)[C@@H]1CCCN1C(=O)[C@@H]1CCCN1C(=O)CNC(=O)[C@@H]1CCC(=O)N1)[C@@H](C)CC)[C@@H](C)CC)[C@@H](C)CC)C(=O)N[C@@H](CCC(=O)O)C(=O)N[C@@H](CCCCN)C(=O)N[C@@H](CCC(N)=O)C(=O)N[C@@H](CCC(=O)O)C(=O)N[C@@H](CCCCN)C(=O)N[C@@H](CCC(=O)O)C(=O)N[C@@H](CCCCN)C(=O)N[C@@H](CCC(N)=O)C(=O)N[C@@H](CCC(N)=O)C(=O)N[C@@H](C)C(=O)N[C@@H](C)C(=O)N[C@@H](CC(N)=O)C(=O)N[C@@H](CC(N)=O)C(=O)N[C@@H](C)C(=O)N[C@@H](CCCNC(=N)N)C(=O)N[C@@H](CC(C)C)C(=O)N[C@@H](CC(C)C)C(=O)N[C@@H](C)C(=O)N[C@@H](CCCNC(=N)N)C(N)=O [compound 288] | 14.7 nM | 838 nM | (31.65) %
CC[C@H](C)[C@H](NC(=O)[C@@H](NC(=O)[C@H](CC(=O)O)NC(=O)[C@H](CC(C)C)NC(=O)[C@H](CC(C)C)NC(=O)[C@H](CC(C)C)NC(=O)[C@H](C)NC(=O)[C@H](CC(N)=O)NC(=O)[C@H](CC(N)=O)NC(=O)[C@H](C)NC(=O)[C@H](C)NC(=O)[C@H](CCC(N)=O)NC(=O)[C@H](CCC(N)=O)NC(=O)[C@H](CCCCN)NC(=O)[C@H](CCC(=O)O)NC(=O)[C@H](CCCCN)NC(=O)[C@H](CCC(=O)O)NC(=O)[C@H](CCC(N)=O)NC(=O)[C@H](CCCCN)NC(=O)[C@H](CCC(=O)O)NC(=O)[C@@H](NC(=O)[C@H](CCC(=O)O)NC(=O)[C@@H](NC(=O)[C@H](CCSC)NC(=O)[C@H](CCCCN)NC(=O)[C@H](CCCNC(=N)N)NC(=O)[C@H](CC(C)C)NC(=O)[C@H](CC(C)C)NC(=O)[C@H](Cc1c[nH]cn1)NC(=O)[C@H](Cc1ccccc1)NC(=O)[C@@H]1CCCN1C(=O)[C@H](CC(C)C)NC(=O)[C@H](CC(=O)O)NC(=O)[C@@H](NC(=O)[C@H](CO)NC(=O)[C@@H](NC(=O)[C@@H]1CCCN1C(=O)[C@@H]1CCCN1C(=O)CNC(=O)[C@@H]1CCC(=O)N1)[C@@H](C)CC)[C@@H](C)CC)[C@@H](C)CC)[C@@H](C)CC)[C@@H](C)O)C(N)=O [compound 228] | 7.1 nM | 275 nM | –
CC[C@H](C)[C@H](NC(=O)[C@@H](NC(=O)[C@H](CC(=O)O)NC(=O)[C@H](CC(C)C)NC(=O)[C@H](CC(C)C)NC(=O)[C@H](CC(C)C)NC(=O)[C@H](C)NC(=O)[C@H](CC(N)=O)NC(=O)[C@H](CC(N)=O)NC(=O)[C@H](C)NC(=O)[C@H](C)NC(=O)[C@H](CCC(N)=O)NC(=O)[C@H](CCC(N)=O)NC(=O)[C@H](CCCCN)NC(=O)[C@H](CCC(=O)O)NC(=O)[C@H](CCCCN)NC(=O)[C@H](CCC(=O)O)NC(=O)[C@H](CCC(N)=O)NC(=O)[C@H](CCCCN)NC(=O)[C@H](CCC(=O)O)NC(=O)[C@@H](NC(=O)[C@H](CCC(=O)O)NC(=O)[C@@H](NC(=O)[C@H](CCSC)NC(=O)[C@H](CCCCN)NC(=O)[C@H](CCCNC(=N)N)NC(=O)[C@H](CC(C)C)NC(=O)[C@H](CC(C)C)NC(=O)[C@H](Cc1c[nH]c2ccccc12)NC(=O)[C@H](Cc1ccc(O)cc1)NC(=O)[C@@H]1CCCN1C(=O)[C@H](CC(C)C)NC(=O)[C@H](CC(=O)O)NC(=O)[C@@H](NC(=O)[C@H](CO)NC(=O)[C@@H](NC(=O)[C@@H]1CCCN1C(=O)[C@@H]1CCCN1C(=O)CNC(=O)[C@@H]1CCC(=O)N1)[C@@H](C)CC)[C@@H](C)CC)[C@@H](C)CC)[C@@H](C)CC)[C@@H](C)O)C(N)=O [compound 310] | 8.7 nM | ≥ 1000 nM | –
CC[C@H](C)[C@H](NC(=O)[C@@H](NC(=O)[C@H](CC(=O)O)NC(=O)[C@H](CC(C)C)NC(=O)[C@H](CC(C)C)NC(=O)[C@H](CC(C)C)NC(=O)[C@H](CCCNC(=N)N)NC(=O)[C@H](CC(N)=O)NC(=O)[C@H](CC(N)=O)NC(=O)[C@H](C)NC(=O)[C@H](C)NC(=O)[C@H](CCC(N)=O)NC(=O)[C@H](CCC(N)=O)NC(=O)[C@H](CCCCN)NC(=O)[C@H](CCC(=O)O)NC(=O)[C@H](CCCCN)NC(=O)[C@H](CCC(=O)O)NC(=O)[C@H](CCC(N)=O)NC(=O)[C@H](CCCCN)NC(=O)[C@H](CCC(=O)O)NC(=O)[C@@H](NC(=O)[C@H](CCC(=O)O)NC(=O)[C@@H](NC(=O)[C@H](CCSC)NC(=O)[C@H](CCCCN)NC(=O)[C@H](CCCNC(=N)N)NC(=O)[C@H](CC(C)C)NC(=O)[C@H](CC(C)C)NC(=O)[C@H](CO)NC(=O)[C@@H](NC(=O)[C@@H]1CCCN1C(=O)[C@H](CC(C)C)NC(=O)[C@H](CC(=O)O)NC(=O)[C@@H](NC(=O)[C@H](CO)NC(=O)[C@@H](NC(=O)[C@@H]1CCCN1C(=O)[C@@H]1CCCN1C(=O)CNC(=O)[C@@H]1CCC(=O)N1)[C@@H](C)CC)[C@@H](C)CC)[C@@H](C)O)[C@@H](C)CC)[C@@H](C)CC)[C@@H](C)O)C(N)=O [compound 43] | > 100 nM | > 1000 nM | –
CC[C@H](C)[C@H](NC(=O)[C@@H](NC(=O)[C@H](C)NC(=O)[C@H](CC(C)C)NC(=O)[C@H](CC(C)C)NC(=O)[C@H](CC(C)C)NC(=O)[C@H](C)NC(=O)[C@H](CC(N)=O)NC(=O)[C@H](CC(N)=O)NC(=O)[C@H](C)NC(=O)[C@H](C)NC(=O)[C@H](CCC(N)=O)NC(=O)[C@H](CCC(N)=O)NC(=O)[C@H](CCCCN)NC(=O)[C@H](CCC(=O)O)NC(=O)[C@H](CCCCN)NC(=O)[C@H](CCC(=O)O)NC(=O)[C@H](CCC(N)=O)NC(=O)[C@H](CCCCN)NC(=O)[C@H](CCC(=O)O)NC(=O)[C@@H](NC(=O)[C@H](CCC(=O)O)NC(=O)[C@@H](NC(=O)[C@H](CCSC)NC(=O)[C@H](CCCCN)NC(=O)[C@H](CCCNC(=N)N)NC(=O)[C@H](CC(C)C)NC(=O)[C@H](CC(C)C)NC(=O)[C@H](CCC(=O)O)NC(=O)[C@H](CC(C)C)NC(=O)[C@@H]1CCCN1C(=O)[C@H](CC(C)C)NC(=O)[C@H](CC(=O)O)NC(=O)[C@@H](NC(=O)[C@H](CO)NC(=O)[C@@H](NC(=O)[C@@H]1CCCN1C(=O)[C@@H]1CCCN1C(=O)CNC(=O)[C@@H]1CCC(=O)N1)[C@@H](C)CC)[C@@H](C)CC)[C@@H](C)CC)[C@@H](C)CC)[C@@H](C)O)C(N)=O [compound 234] | 20.6 nM | 434 nM | –
CC[C@H](C)[C@H](NC(=O)[C@@H](NC(=O)[C@H](CC(=O)O)NC(=O)[C@H](CC(C)C)NC(=O)[C@H](CC(C)C)NC(=O)[C@H](CC(C)C)NC(=O)[C@H](CCCNC(=N)N)NC(=O)[C@H](CC(N)=O)NC(=O)[C@H](CC(N)=O)NC(=O)[C@H](C)NC(=O)[C@H](C)NC(=O)[C@H](CCC(N)=O)NC(=O)[C@H](CCC(N)=O)NC(=O)[C@H](CCCCN)NC(=O)[C@H](CCC(=O)O)NC(=O)[C@H](CCCCN)NC(=O)[C@H](CCC(=O)O)NC(=O)[C@H](CCC(N)=O)NC(=O)[C@H](CCCCN)NC(=O)[C@H](CCC(=O)O)NC(=O)[C@@H](NC(=O)[C@H](CCC(=O)O)NC(=O)[C@@H](NC(=O)[C@H](CCSC)NC(=O)[C@H](CCCCN)NC(=O)[C@H](CCCNC(=N)N)NC(=O)[C@H](CC(C)C)NC(=O)[C@H](CC(C)C)NC(=O)[C@H](CCCCN)NC(=O)[C@@H](NC(=O)[C@@H]1CCCN1C(=O)[C@H](CC(C)C)NC(=O)[C@H](CC(=O)O)NC(=O)[C@@H](NC(=O)[C@H](CO)NC(=O)[C@@H](NC(=O)[C@@H]1CCCN1C(=O)[C@@H]1CCCN1C(=O)CNC(=O)[C@@H]1CCC(=O)N1)[C@@H](C)CC)[C@@H](C)CC)[C@@H](C)CC)[C@@H](C)CC)[C@@H](C)CC)[C@@H](C)O)C(N)=O [compound 34] | > 100 nM | > 1000 nM | –
CC[C@H](C)[C@H](NC(=O)[C@H](CCCNC(=N)N)NC(=O)[C@H](C)NC(=O)[C@H](CC(C)C)NC(=O)[C@H](CC(C)C)NC(=O)[C@H](CCCNC(=N)N)NC(=O)[C@H](C)NC(=O)[C@H](CC(N)=O)NC(=O)[C@H](CC(N)=O)NC(=O)[C@H](C)NC(=O)[C@H](C)NC(=O)[C@H](CCC(N)=O)NC(=O)[C@H](CCC(N)=O)NC(=O)[C@H](CCCCN)NC(=O)[C@H](CCC(=O)O)NC(=O)[C@H](CCCCN)NC(=O)[C@H](CCC(=O)O)NC(=O)[C@H](CCC(N)=O)NC(=O)[C@H](CCCCN)NC(=O)[C@H](CCC(=O)O)NC(=O)[C@@H](NC(=O)[C@H](CCC(=O)O)NC(=O)[C@@H](NC(=O)[C@@H](NC(=O)[C@H](CCCCN)NC(=O)[C@H](CCCNC(=N)N)NC(=O)[C@H](CC(C)C)NC(=O)[C@H](CC(C)C)NC(=O)[C@H](Cc1ccccc1)NC(=O)[C@@H](NC(=O)[C@@H]1CCCN1C(=O)[C@H](CC(C)C)NC(=O)[C@H](CC(=O)O)NC(=O)[C@@H](NC(=O)[C@H](CO)NC(=O)[C@@H](NC(=O)[C@@H]1CCCN1C(=O)[C@@H]1CCCN1C(=O)CNC(=O)[C@@H]1CCC(=O)N1)[C@@H](C)CC)[C@@H](C)CC)[C@@H](C)CC)C(C)C)[C@@H](C)CC)[C@@H](C)CC)C(N)=O [compound 281] | ≥ 100 nM | ≥ 1000 nM | –
